Measurements published in patent US7745001B2, “Synthesis of nanoassemblies containing luminescent quantum dots and magnetic nanoparticles” (University of New Orleans Research and Technology …, priority 2004, dated 2010).

Molecular target: concanavalin A (Con A) (Canavalia ensiformis, UniProt P02866)
Conditions: 15 mg free R-D-glucose added to the solution

SMILES: O=C[C@H](O)[C@@H](O)[C@H](O)[C@H](O)CO [R-D-glucose]
- effect of free sugar on Con A initiated aggregation of glyconanospheres: aggregation of glyconanospheres was prevented
